## Apparent affinities of Ab-91 variants for a coronavirus HR2 peptide

Target: peptide PDVDLGDISGINAS, taken from heptad repeat 2 (HR2) of SARS-CoV-2 spike.

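Library AAYL51 holds single substitutions and randomly drawn double and triple substitutions in the CDRs. AlphaSeq pools MATa yeast showing the antibodies with MATalpha yeast showing the peptide. Pairs that bind mate more often; barcode pairs of the diploids are counted by sequencing. Read counts were normalised to the haploid input and turned into Kd by a linear fit to BCL2-family pairs of known affinity, for each replicate. There are three technical replicates.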

The variants keep the light chain, the linker and the frameworks of Ab-91 (scFv order VL, the linker GGGGSGGGGSGGGGS, VH).
VL: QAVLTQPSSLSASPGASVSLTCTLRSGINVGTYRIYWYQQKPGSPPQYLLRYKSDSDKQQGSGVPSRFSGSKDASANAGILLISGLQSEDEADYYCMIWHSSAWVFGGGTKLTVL
VH: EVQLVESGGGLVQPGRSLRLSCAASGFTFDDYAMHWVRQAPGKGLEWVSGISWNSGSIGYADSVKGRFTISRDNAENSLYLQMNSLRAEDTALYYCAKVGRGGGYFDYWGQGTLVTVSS

Each variant is given by its three heavy chain CDRs, as the data file delimits them; those of the parent are GFTFDDYAMH, GISWNSGSIGYADSVK, VGRGGGYFDY. This list gathers variants with a substitution at G100 (VH, numbered from residue 1). Kd is apparent (estimated from mating counts) and averaged on the log scale over replicates with a signal. Smaller is tighter. "nd" marks a missing value. The strain was present, yet no cells mated with the target were sequenced in any replicate, which points to weak or no binding. Nonspecific signal, from three strains lacking the peptide, appeared in 21% of pairings of library AAYL51, centred on 34 µM (5% of these signals below 1.8 µM); values are not corrected for it.

| CDR-H1 | CDR-H2 | CDR-H3 | Kd (apparent) | replicates with signal |
|---|---|---|---|---|
| GFTFDDYAMM | GISWNSFSIGYADSVK | VRRGGGYFDY | 96 µM | 3 of 3 |
| GFTFDDYAMH | GISWNSGSIGYADSCK | VQRGGGYFDY | nd | 0 of 3 |
| GFTFDDYAIH | GISWNSSSIGYADSVK | VPRGGGYFDY | nd | 0 of 3 |
| GFTFDDYAMH | GISWNSGSIGPADSVK | PERGGGYFDY | nd | 0 of 3 |
| GFTFDDYAMH | GISWNSGSIGYADNVK | VFRGGGYFDT | 1.2 mM | 2 of 3 |
| HFTFDDYAMH | GISWNSGSIGYADSVK | VTLGGGYFDY | nd | 0 of 3 |
| GFTFDDYAMH | IISWNSGSIGYATSVK | VKRGGGYFDY | nd | 0 of 3 |
| GFTFDDYAMH | GISWNSGSIGFADSVK | VIRGMGYFDY | 74 µM | 1 of 3 |
| CFTFDDYAMH | GISWNSGSIGYADSVK | VKWGGGYFDY | 110 nM | 3 of 3 |
| GFTFDDYAMH | GISWNSGSIGYADSVK | TYRGGGYFDG | 15 µM | 1 of 3 |
| GFTFDDYAMH | GIIINSGSIGYADSVK | VCRGGGYFDY | nd | 0 of 3 |
| WFTFDDYAMH | GISWNSGSIGYADSVK | VLRGGGYWDY | nd | 0 of 3 |
| GFTFDDYAMH | GISWNSGSIGYADSVF | VFRGGGFFDY | 10 nM | 3 of 3 |
| GFTFDDYMMH | GISVNSGSIGYADSVK | VARGGGYFDY | 10 µM | 2 of 3 |
| GFTFDDYAMH | GLSWNSESIGYADSVK | VSRGGGYFDY | nd | 0 of 3 |
| GFTADDYAMH | GISWNSGSIGYADSVK | VPRGGTYFDY | 18 µM | 1 of 3 |
| GFTFDDYAMH | GIAWNSGGIGYADSVK | VIRGGGYFDY | 12 µM | 2 of 3 |
| GFTFDDMAMH | GISWNSGSIGYADSVK | VLRGSGYFDY | 39 µM | 1 of 3 |
| GFTFDDYAMH | GIRWNSGSHGYADSVK | VCRGGGYFDY | 110 µM | 3 of 3 |
| GFTFDDYAMH | GISWNHGSIGYADSVK | VDRGGGQFDY | 16 µM | 2 of 3 |
| GFKFDDYAMH | GISWNSGSHGYADSVK | VVRGGGYFDY | 6.3 µM | 2 of 3 |
| GFSFDDYAMH | GISWNSGSIGYADSVK | VKRGGGYFDD | 210 nM | 3 of 3 |
| GFTFDDYAMH | GISWNSGSIGYATSVK | VNRGGGYFKY | 140 nM | 3 of 3 |
| GFTFDDYAMH | GISWNSGSIGYASSVK | VDRGGGYRDY | nd | 0 of 3 |
| QFTFDDYAMH | GISWNSGSIGYADSVK | VMRGGGYFDY | 5.3 µM | 2 of 3 |
| GFTFDEYAMH | GISWNSGSIGYADSVY | VTRGGGYFDY | 21 µM | 2 of 3 |
| GFTFDDYAMH | GISWNSGSIGYADSVK | VIGGGGYFDW | nd | 0 of 3 |
| GFTFDDYAMH | GISWNSGSIGYADSVK | VRRGGGYFDY | 120 nM | 3 of 3 |
| GFTFDDYAMH | GISWNSESIGYADPVK | VIRGGGYFDY | nd | 0 of 3 |
| GFTIDDYAMH | GISWNSGSIGYMDSVK | VFRGGGYFDY | nd | 0 of 3 |
| GFTFDDYAMH | GISVNSGSIGYADSVK | VNRDGGYFDY | nd | 0 of 3 |
| GFTFDDYAMH | GISWNSGSIGYADFVK | VHRGGGYFEY | 71 nM | 3 of 3 |
| GFTFDDYAMH | GISWNSGSIGYADSGK | VWRGGGYFDY | 380 nM | 1 of 3 |
| GFTFDVYAMH | GISWNSGSIGYADSVK | VYRGGGYFDY | 23 µM | 1 of 3 |
| GFTFDDYAMH | GISWNSGSIHYADSVK | VYRGGGYFDY | nd | 0 of 3 |
| GFTFDDYAMH | GISWNSGSWGYADSVK | VLRGGGYFDY | nd | 0 of 3 |
| GFTFDDYAMH | GIPWNSGSIGYADSVK | VARGVGYFDY | nd | 0 of 3 |
| GFTFDDYAMD | GPSWNSGSIGYADSVK | VRRGGGYFDY | 12 µM | 3 of 3 |
| GFTFDDYAME | GISWNSGSIGYADSVK | VVRGGGSFDY | 32 µM | 2 of 3 |
| GFHFDDYAMC | GISWNSGSIGYADSVK | VWRGGGYFDY | nd | 0 of 3 |
| GFTFDDYAMH | GISSNSGSIGFADSVK | VRRGGGYFDY | nd | 0 of 3 |
| GFTFDDYVMH | GISWNSGSIGYADSVK | GPRGGGYFDY | nd | 0 of 3 |
| GFTFDDYAMH | GISWNSGSIGYADSVK | VSRGGGYFDY | nd | 0 of 3 |
| GFTQDDYAMH | GISWNSPSIGYADSVK | VDRGGGYFDY | 59 µM | 2 of 3 |
| GFTFDDYAMH | GGSWNSGSIGYADSVK | VIRGGGYFHY | 230 µM | 1 of 3 |
| GFTFDDYAMH | GISWNSGSIFYADSVK | VSRGGGYKDY | nd | 0 of 3 |
| RFTFDDYAMH | GISWNSGSIGYADSVK | VARGGNYFDY | 160 µM | 1 of 3 |
| GFTFDDYAMH | GISWNSGLIGYADSVK | VDRGGGYFDY | nd | 0 of 3 |
| GFTFQDYAMH | GISWNSGLIGYADSVK | VNRGGGYFDY | 24 nM | 3 of 3 |
| GYTFDDYAMH | GISWNSGSIGYADSVK | VKRGGGYFDY | 3.4 µM | 1 of 3 |
| GFTFDDYAHH | GISWNSGSIGYALSVK | VSRGGGYFDY | 240 µM | 1 of 3 |
| GFTFDDYAMH | GIMWNSGSIGYADSVK | VSRGGGYFDD | nd | 0 of 3 |
| GFTFDDYAFH | GISWNSGSIGYADSVK | VQRGGGTFDY | nd | 0 of 3 |
| GNTFDDYAMH | GISWNSGSIGYADSVK | VSRGGGYFDY | 100 µM | 2 of 3 |
| GFTFGDYAMH | GISWNSGSIGYKDSVK | VVRGGGYFDY | 23 µM | 3 of 3 |
| GFTFDDYAMH | GISQNSGSIGYADSVK | VPRGGGQFDY | nd | 0 of 3 |
| GFTFDDGAMH | GISWNSGSIGYADSVK | VHRGGGYFDY | 160 µM | 1 of 3 |
| GFTFDDYAMH | GISWNEGSIGYADSVK | VARGGHYFDY | nd | 0 of 3 |
| GFTFDDYAMW | GISWNSGSISYADSVK | VNRGGGYFDY | nd | 0 of 3 |
| GFTFDDYAMH | GISWNSGAIGYADSVK | VFRGGGYFDE | nd | 0 of 3 |
| GFTFDMYQMH | GISWNSGSIGYADSVK | VDRGGGYFDY | 8.1 µM | 1 of 3 |

Excerpt, the first 10 entries:

CDR-H1,CDR-H2,CDR-H3,Kd (apparent),replicates with signal
GFTFDDYAMM,GISWNSFSIGYADSVK,VRRGGGYFDY,96 µM,3 of 3
GFTFDDYAMH,GISWNSGSIGYADSCK,VQRGGGYFDY,nd,0 of 3
GFTFDDYAIH,GISWNSSSIGYADSVK,VPRGGGYFDY,nd,0 of 3
GFTFDDYAMH,GISWNSGSIGPADSVK,PERGGGYFDY,nd,0 of 3
GFTFDDYAMH,GISWNSGSIGYADNVK,VFRGGGYFDT,1.2 mM,2 of 3
HFTFDDYAMH,GISWNSGSIGYADSVK,VTLGGGYFDY,nd,0 of 3
GFTFDDYAMH,IISWNSGSIGYATSVK,VKRGGGYFDY,nd,0 of 3
GFTFDDYAMH,GISWNSGSIGFADSVK,VIRGMGYFDY,74 µM,1 of 3
CFTFDDYAMH,GISWNSGSIGYADSVK,VKWGGGYFDY,110 nM,3 of 3
GFTFDDYAMH,GISWNSGSIGYADSVK,TYRGGGYFDG,15 µM,1 of 3

Values reported by Engelhart et al. 2022, doi:10.1038/s41597-022-01779-4 (FLAb copy).